Experimental data published in US11554172B2, “Phosphonate linkers and their use to facilitate cellular retention of compounds” (priority 2016, dated 2023).

The chains behind the UniProt entries cited, without tags or fusion partners. Where a name states a change or a piece, a line headed by the entry shows the natural chain unless it says otherwise.
UniProt P04150: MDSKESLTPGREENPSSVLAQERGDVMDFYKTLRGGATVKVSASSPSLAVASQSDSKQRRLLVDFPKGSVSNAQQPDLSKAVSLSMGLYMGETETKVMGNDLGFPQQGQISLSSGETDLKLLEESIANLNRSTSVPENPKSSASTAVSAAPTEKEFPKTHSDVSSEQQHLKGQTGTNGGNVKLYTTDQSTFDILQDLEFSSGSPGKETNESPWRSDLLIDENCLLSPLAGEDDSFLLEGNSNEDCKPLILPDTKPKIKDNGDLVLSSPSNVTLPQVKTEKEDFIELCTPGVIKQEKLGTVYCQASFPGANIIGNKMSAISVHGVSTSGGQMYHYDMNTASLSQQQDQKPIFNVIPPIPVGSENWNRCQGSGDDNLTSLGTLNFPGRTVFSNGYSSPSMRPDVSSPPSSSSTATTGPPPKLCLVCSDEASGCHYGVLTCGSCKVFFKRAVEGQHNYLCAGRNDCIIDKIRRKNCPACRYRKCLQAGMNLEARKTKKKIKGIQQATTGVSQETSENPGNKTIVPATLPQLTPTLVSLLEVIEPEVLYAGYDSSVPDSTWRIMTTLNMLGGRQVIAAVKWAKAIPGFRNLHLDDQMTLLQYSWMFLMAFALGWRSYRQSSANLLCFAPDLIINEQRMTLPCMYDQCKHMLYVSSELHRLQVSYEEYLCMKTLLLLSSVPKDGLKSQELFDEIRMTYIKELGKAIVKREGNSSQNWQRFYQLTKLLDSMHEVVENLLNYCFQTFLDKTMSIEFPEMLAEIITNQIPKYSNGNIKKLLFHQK

Legend:
[1] = target: GR full length protein (glucocorticoid receptor) (Homo sapiens (Human), UniProt P04150); test: PolarScreen Glucocorticoid Receptor Competitor Assay (GR binding); conditions: fluorescence polarisation competitor assay, 2-4 hours at room temperature; read-out: GR Bind IC50
MDCKII cells = test: Apparent permeability in MDCKII cells; conditions: Papp, average of A to B and B to A, 1 μM test compound, t=3 hr

## (6-(3-((3aR,4aS,4bS,11aR,11bS,12S,13aS,13bS)-12-hydroxy-13b-(2-hydroxyacetyl)-11a,13a-dimethyl-2-propyl-4,4a,5,6,11,11a,11b,12,13,13a-decahydro-[1,3]dioxolo[4″,5″:3′,4′]cyclopenta[1′,2′:5,6]naphtho[,2-f]indazol-8(3aH,4bH,13bH)-yl)phenoxy)hexyl)phosphonic acid [Compound 27]
[1]
  IC50: 2 nM
MDCKII cells
  MDCK Permeability (cm × 10-6/sec): 1.8 cm × 10-6/sec
